EWS-Fli inh: EWS/Fli transcriptional activity inhibition. inhibition, % at 12.6 µM. AID 651661. actives 0.67% (n = 350,000). A673 NR0B1-luciferase reporter, viability-normalised;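 active = mean inhibition of at least 50% after viability correction, with every replicate also passing that limit; inconclusive = mean reaches 50% but only one of two replicates passes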;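 note: firefly luciferase signal divided by Alamar Blue viability fluorescence both relative to DMSO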
LGR2 antag: Drosophila LGR2 receptor signaling inhibition; HEK293 LGR2, CRE-luciferase, bursicon-stimulated, 4 h; inhibition, % at 9.99 µM; actives 0.35% (n = 380,000); AID 720647;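 active = drop in luminescence signal, shown as inhibition above about 50% in the replicate tests, limit read from the data, passing the limit was not always enough; inconclusive = probably only some replicates passing the limit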;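 note: agonist challenge used bursicon conditioned medium at about half maximal strength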
PglD DTNB: blocks C. jejuni PglD acetyltransferase activity | purified PglD enzyme, DTNB colorimetric CoA detection | inhibition, % at 12.5 µM | actives 0.098% (n = 360,000); in the data active = inhibition above about 16%, passing the limit was not always enough; inconclusive = no clear call, values can overlap the other calls
miR122 inh: blocks miR-122 activity in Huh7 sensor cells; Huh7 miR-122 Renilla luciferase sensor, 48 h; neutral wells = 0, positive control = 100; actives 0.3% (n = 340,000); AID 602342; activation (reporter increase), % at 12.5 µM;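 active = mean replicate activation score at least 90 and every replicate individually at or above 90; inconclusive = only one of the two criteria met; inactive = neither criterion met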;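 note: higher luciferase means less miR-122 activity so hits act as miR-122 inhibitors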
Yeast UUG start: modulators of yeast start codon fidelity, primary screen, whole organism, S. cerevisiae, single point, plate reader; S. cerevisiae UUG-firefly luciferase reporter, luminescence/redox ratio; activity score, % at 18.7 µM; 0.13% of 350,000 active; AID 602363, 2012;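 active = replicate mean at a twofold rise or more, about +100% in these data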;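 also: firefly luciferase made from a UUG start codon reports start codon fidelity; reporter light over untreated wells divided by growth signal over untreated wells; some hits fall short of that in this replicate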
F508del corr: correctors of CFTR F508del function in bronchial epithelial cells; CFBE cells, YFP halide quenching; stimulated with forskolin plus potentiator P3; % fluorescence drop versus neutral controls; actives 0.36% (n = 350,000); AID 720511; activity (quench increase), % at 7.58 µM;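 active = mean added fluorescence quench of at least 8% versus neutral control, with both replicates also reaching 8%; inconclusive = only one of the mean or replicate conditions met; inactive = mean below 8% and not both replicates reaching 8%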;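 note: cells transiently co-express mutant CFTR-F508del with the halide-sensitive YFP; corrector assay measuring rescue of mutant channel to the surface after 24 h compound exposure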
The depositor's hits bear a star; ? = inconclusive; · = no result; ! = not active in a repeat; [ ] = remark or other dose. Shown are actives, neighbours in structure and some others; about 1.3% of the full set was active somewhere.

| Molecule | EWS-Fli inh | LGR2 antag | PglD DTNB | miR122 inh | Yeast UUG start | F508del corr |
| --- | --- | --- | --- | --- | --- | --- |
| C[C@@H]1CN([C@@H](C)CO)C(=O)c2cccc(NC(=O)Nc3ccc(C(F)(F)F)cc3)c2O[C@H]1CN(C)C(=O)Nc1cccc2ccccc12 | 17 | ? | -4 | -2[16.7 µM] | -6 | 2 |
| Cc1ccc(NC(=O)c2cn(CCC#N)nc2-c2cccs2)c([N+](=O)[O-])c1 | -14 | -2 | · | · | · | · |
| CCCNC(=O)C[C@@H]1C[C@H]2c3cc(NC(=O)CN(C)C)ccc3O[C@H]2[C@H](CO)O1 | -2 | -8 | -2 | 2[16.7 µM] | 95 | 2 |
| COC(=O)[C@@]1(Cc2ccc(OC)cc2)[C@H]2c3cc(C(=O)N4CCCC4)n(Cc4c(CO)[nH]cc(C)c4=O)c3C[C@H]2CN1C(=O)c1ccccc1 | -4 | 16 | · | · | · | 0 |
| COCC(=O)N1[C@@H](CO)[C@@H]2c3ccccc3N(C)C[C@@H]21 | 6 | -8 | -2 | 7[16.7 µM] | 1 | 0 |
| NC(=NCCCCCCN=C(N)/N=C(\N)Nc1ccc(Cl)cc1)/N=C(\N)Nc1ccc(Cl)cc1 | 6 | 23 | -2 | -7 | -12 | 12*! |
| CC(C)N=C(N)N=C(N)Nc1ccc(Cl)cc1 | -9 | -10 | 1 | -15 | -10 | -2 |
| COc1cc(NC(=O)c2ccc3c(c2)C(=O)N(CCC(C)C)C3=O)c(C(=O)O)cc1OC | 2 | · | 6 | 1 | -13 | 0 |
| Cc1c(C)c2c(OCC(=O)N3CCC(O)CC3)cc3c(c2oc1=O)CCC(C)(C)O3 | 13 | 6 | 3 | 1 | -12 | 9.2* |
| COc1coc(C(O)CN)cc1=O (configuration not stated) | -3 | -21 | · | · | · | -2 |
| CCOC(=O)C(=Cc1cc(=O)c(OC)co1)C(=O)OCC | 70* | ? | · | · | · | · |
| O=C(Cc1coc2cc3c(cc12)CCC3)OCc1cc(=O)n2c(n1)sc1ccccc12 | · | · | -1 | -6 | -17 | · |
| O=C(NCc1cc(C(F)(F)F)ccc1Cl)c1cccc2c1C(=O)c1ccc(N3CCC(N4CCCCC4)CC3)cc1S2(=O)=O | 48 | active | -1 | -1 | -8 | 1 |
| COc1ccc(S(=O)(=O)N2CCN(S(=O)(=O)c3ccc4c(c3)OCCO4)CC2)cc1C | · | · | -8 | -4 | -20 | · |
| Cc1ccc(S(=O)(=O)NCCC(C)C)cc1[N+](=O)[O-] | -23 | 16 | · | 232* | · | · |
| CCOC(=O)c1c(C)[nH]c(NC(=O)Nc2c(C)n(C)n(-c3ccccc3)c2=O)c1C | 7 | 1 | -1 | 0 | -12 | -1 |
| COC(=O)c1cc(C(=O)N2CCN(c3ncccn3)CC2)cc([N+](=O)[O-])c1 | -6 | -4 | 4 | -5 | -3 | -3 |
| COC(=O)c1cc(C(=O)N2CCN(C(=O)c3ccco3)CC2)cc([N+](=O)[O-])c1 | 6 | -19 | -3 | -8 | 6 | -2 |
| COC(=O)c1cc(C(=O)N2CCN(c3cccc(C)c3C)CC2)cc([N+](=O)[O-])c1 | 56* | 14 | · | · | · | · |
| COC(=O)c1cc(C(=O)N2CCN(c3ccccc3OC)CC2)cc([N+](=O)[O-])c1 | 55* | 25 | · | · | · | 2 |
| Cc1cccc(N2CCN(C(=O)c3ccc4[nH]c(C)c(C)c4c3)CC2)c1C | 54* | -10 | -1 | 49 | -32 | 11* |
| COc1ccc(-c2cnc3c(c2)C(=O)N([C@@H](C)CO)C[C@@H](C)[C@@H](CN(C)S(C)(=O)=O)O3)cc1 | -13 | -8 | -1 | 38[16.7 µM] | 21 | 1 |
| COc1ccc(S(=O)(=O)Nc2ccc3c(c2)C(=O)N([C@H](C)CO)C[C@@H](C)[C@H](CN(C)C(=O)c2ccccc2)OCCCC[C@@H](C)O3)cc1 | 4 | 3 | 4 | -10[16.7 µM] | 7 | -1 |
| Cc1cc(Cl)ccc1OCC(=O)Nc1ccc2oc(=O)ccc2c1 | · | -2 | -3 | -1 | 3 | 1 |
| Cc1ccc(-c2nnc(NCc3nc4ccccc4[nH]3)c3ccccc23)cc1S(=O)(=O)N(C)C | 27 | 58* | 0 | -2 | -14 | 0 |

Full records from above:
`CCCNC(=O)C[C@@H]1C[C@H]2c3cc(NC(=O)CN(C)C)ccc3O[C@H]2[C@H](CO)O1` as listed: EWS-Fli inh = -2; LGR2 antag = -8; PglD DTNB = -2; miR122 inh = 2[16.7 µM]; Yeast UUG start = 95; F508del corr = 2
`COc1ccc(S(=O)(=O)Nc2ccc3c(c2)C(=O)N([C@H](C)CO)C[C@@H](C)[C@H](CN(C)C(=O)c2ccccc2)OCCCC[C@@H](C)O3)cc1` as listed: EWS-Fli inh = 4; LGR2 antag = 3; PglD DTNB = 4; miR122 inh = -10[16.7 µM]; Yeast UUG start = 7; F508del corr = -1

Additional structures:
| Molecule | EWS-Fli inh | LGR2 antag | PglD DTNB | miR122 inh | Yeast UUG start | F508del corr |
| --- | --- | --- | --- | --- | --- | --- |
| COc1cccc(-c2cc(C(=O)Nc3cccc(O)c3)no2)c1 | · | 79* | 1 | -6 | -48 | · |
| Cc1ccccc1C(=O)Nc1ccc(Br)c(C)n1 | · | -49 | -2 | 128* | -4 | · |
| Cc1nc(NC(=O)c2cccnc2)ccc1Br | · | · | -2 | -2 | -17 | · |
| CCS(=O)(=O)Nc1ccc2c(c1)C(=O)N(C)C[C@@H](OC)[C@H](C)CN(C(=O)CN(C)C)[C@H](C)CO2 | -5 | 19 | -2 | 3[16.7 µM] | -11 | 2 |
| CC(=O)Nc1ccc(CNc2ncnc3ccc(-c4c(C)noc4C)cc23)cc1 | 70* | -20 | 0 | -15 | -2 | -4 |
| Cc1cccc(CNc2ncnc3ccc(-c4ccoc4)cc23)c1 | -4 | 29 | 0 | 7 | -1 | 0 |
| COc1ccc(CC2C(=O)NC(C)C(=O)N(C)C3Cc4ccc(cc4)Oc4cc(ccc4O)CC(C(=O)NC(C)C(=O)NC(C)C(=O)N2C)N(C)C3=O)cc1 (configuration not stated) | 66* | 103* | · | -7 | · | 0 |
| CC(C)C[C@@H]1NC(=O)[C@H](Cc2ccccc2)N(C)C(=O)[C@H](C)NC(=O)c2ccccc2NC(=O)[C@H](Cc2ccc(O)cc2)N(C)C1=O | 20 | 17 | 1 | 12 | -5 | -5 |
| O=C1C=CC2(O[C@H](c3ccccc3)[C@@H](c3ccccc3)O2)[C@H](Sc2ccccc2O)C1 | 68* | 99* | · | · | · | -12 |
| C[C@@H]1[C@@H](Sc2ccccc2)CC(=O)O[C@@H]1c1ccc(-c2ccccc2)cc1 | 13 | 42 | 0 | · | -3 | -3 |
| Oc1cccc2cc(Nc3ccccc3)cnc12 | 41 | -3 | -6 | -5 | -66 | 10.0* |
| COc1ccc(NC(=O)Nc2ccc3c(c2)C(=O)N([C@@H](C)CO)C[C@H](C)[C@H](CN(C)C(=O)CCC(F)(F)F)OCCCC[C@@H](C)O3)cc1 | -14 | -5 | -1 | 6[16.7 µM] | 7 | 0 |
| CCOc1ccc(C(=O)COC(=O)Cc2n[nH]c(=O)c3ccccc23)cc1 | 37 | 0 | 3 | 3 | -5 | 13* |
| COc1cc2c(cc1OC)C(C)N(C(=O)c1c(C)noc1C)CC2 (configuration not stated) | -3 | · | 1 | 0 | -5 | 4 |
| COc1cc2c(cc1OC)C(C)N(C(=O)c1cc(C)on1)CC2 (configuration not stated) | 53* | -7 | 2 | 8 | -10 | 7 |
| CN1CCN(Cc2c(C(=O)N/N=C/c3cccc(Br)c3)nnn2-c2nonc2N)CC1 | 52* | -1 | 5 | -5 | 0 | -1 |
| Cc1[nH]nc2c1C(c1ccccn1)N(c1ccc(Br)cc1)C2=O (configuration not stated) | · | · | 4 | -2 | -4 | · |
| C[C@H](CO)N1C[C@H](C)[C@H](CN(C)CC2CCCCC2)OCCCC[C@H](C)Oc2ccc(NC(=O)Nc3ccc(C(F)(F)F)cc3)cc2C1=O | -12 | 30 | -2 | -22[16.7 µM] | 12 | -1 |

Sorted by value in PglD DTNB (lowest first): 5 of the compounds above.
smiles	PglD DTNB
CCS(=O)(=O)Nc1ccc2c(c1)C(=O)N(C)C[C@@H](OC)[C@H](C)CN(C(=O)CN(C)C)[C@H](C)CO2	-2
COc1ccc(NC(=O)Nc2ccc3c(c2)C(=O)N([C@@H](C)CO)C[C@H](C)[C@H](CN(C)C(=O)CCC(F)(F)F)OCCCC[C@@H](C)O3)cc1	-1
CC(=O)Nc1ccc(CNc2ncnc3ccc(-c4c(C)noc4C)cc23)cc1	0
CCOc1ccc(C(=O)COC(=O)Cc2n[nH]c(=O)c3ccccc23)cc1	3
Cc1[nH]nc2c1C(c1ccccn1)N(c1ccc(Br)cc1)C2=O (configuration not stated)	4
